{
  "source": "patent US7338948B2",
  "about": "“Use of quetiapine” (AstraZeneca AB, priority 2000, dated 2008)",
  "key": {"[1]": {"tested_on": "Conduct Disorder, Childhood Onset, Moderate Severity and Attention Deficit Hyperactivity Disorder (ADHD), Combined Type", "assay": "Case report: patient with Conduct Disorder and ADHD treated with successive drugs", "conditions": "lithium up to 1125 mg/day with olanzapine 20 mg daily"}, "[2]": {"assay": "Drug level printed in brackets after the dose in the case report", "conditions": "lithium up to 1125 mg/day"}},
  "data": [
    {"molecule": "[Li]", "note": "[lithium]", "values": [
      {"measurement": "side effect other than weight gain", "setting": "[1]", "value": "mild intentional tremor"},
      {"measurement": "side effect: weight gain (increase)", "setting": "[1]", "value": 32, "unit": "lb."},
      {"measurement": "drug level", "setting": "[2]", "value": 1.7, "unit": "ng/mL"}
    ]}
  ]
}
